Values quoted from earlier work as cited in US20140335172A1, “OPHTHALMOLOGICAL RINSING AGENT AND METHODS THEREFOF” (priority 2013, published 2014).

Conditions: cited from earlier work

In the case of C[Si]1(C)O[Si](C)(C)O[Si](C)(C)O[Si](C)(C)O[Si](C)(C)O[Si](C)(C)O1 [Dodecamethylcyclobexasiloxane], the “Water Solubility, mg/L at 23° C.” value is given as 0.053 mg/L.
